US5006342A, “Resilient transdermal drug delivery device” (Cygnus Corporation, priority 1989, dated 1991)
Some compounds may have been tested in ways that are not shown here.

Legend:
[1] = in vitro dissolution of fentanyl base at 25° C.; conditions: 48 hours
[2] = fentanyl skin flux through cadaver skin (diffusion cells, 32° C., phosphate buffer pH 6.0 receiver)

Structure (SMILES): CCC(=O)N(c1ccccc1)C1CCN(CCc2ccccc2)CC1
- correlation coefficient of square root time dependence of release ([1]; Example 16, 25° C.): 0.99
- time dependence of cumulative fentanyl base released ([1]; Example 16, 25° C.): square root time dependent
- correlation coefficient of square root time dependence of release ([1]; Example 22, 25° C.): 0.99
- time dependence of cumulative fentanyl base released ([1]; Example 22, 25° C.): square root time dependent
- fentanyl base steady state flux, cadaver skin ([2]; Example 16, PIB reservoir/PDMS adhesive with Medifilm 428 or 827, 32° C., pH 6.0 receiver): 9.7 μg/cm^2 /hr
- Steady-state skin flux ([2]; Example 17, as Example 16 without Medifilm structure layer): 17.5 μg/cm^2 /hr
- increase of fentanyl skin flux by removal of the Medifilm layer ([2]; Example 17 vs Example 16): increased two-fold
- total fentanyl base delivered ([2]; Example 22, 24 hr skin permeation study): 85%
- fentanyl delivered from the composite ([2]; Example 23, after 24 hr): approximately 85%
- Fentanyl skin flux from the nonocclusive system (steady-state) ([2]; Examples 20 and 21, acrylate reservoir, nonocclusive Medifilm 827 backing): 0.37 μg/cm^2 /hr
- Fentanyl skin flux from the occlusive system ([2]; Examples 20 and 21, acrylate reservoir, occlusive polyester backing): 2.96 μg/cm^2 /hr
- time up to which steady-state flux was maintained ([2]; Examples 20 and 21, nonocclusive system, flux 0.37 μg/cm^2 /hr): 72 h
